In patent US11046697B2, “Compounds and compositions useful for treating disorders related to NTRK” (BLUEPRINT MEDICINES CORPORATION, priority 2015, dated 2021) one finds IC50 data, which are given here for 43 compounds.

Sequences of proteins named here, by UniProt entry; tags and fusion partners are left off. Residues count along the entry.
UniProt P04629, 440-796 limits assumed: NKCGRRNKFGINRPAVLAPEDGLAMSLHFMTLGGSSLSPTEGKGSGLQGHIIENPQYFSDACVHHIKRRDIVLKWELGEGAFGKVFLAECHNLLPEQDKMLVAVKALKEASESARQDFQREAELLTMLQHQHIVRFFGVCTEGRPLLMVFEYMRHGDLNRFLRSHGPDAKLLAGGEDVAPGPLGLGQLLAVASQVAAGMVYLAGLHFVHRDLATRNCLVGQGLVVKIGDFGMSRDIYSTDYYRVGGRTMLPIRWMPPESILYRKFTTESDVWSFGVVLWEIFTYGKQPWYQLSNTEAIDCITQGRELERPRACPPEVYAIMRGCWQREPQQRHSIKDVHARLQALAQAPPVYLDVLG

By IC50 is commonly meant the concentration needed to halve the response being measured.

SMILES strings stand for the structures. Some results are limits rather than exact numbers.

The target in assay [1] is wild type NTRK1 enzyme (Homo sapiens, UniProt P04629). Description: NTRK1 Wild Type Assay at 1 mM ATP. Format: biochemical. Conditions: read-out: Enz NTRK1 IC50.
Assay [2] relates to KM12 wild type colon carcinoma cell line harboring the TPM3-NTRK1 fusion protein. Description: NTRK wild type cellular assay (CellTiter-Glo growth inhibition). Type of assay: cell-based. The following applies: read-out: KM12 (WT) IC50, 72 hr. On the technique in general: In ATP-based viability assays light output follows the ATP content of the culture.
For assay [3], the system named is KM12 Cliff (G595R) cell line. Nature of the assay: NTRK G595R mutant cellular assay (CellTiter-Glo growth inhibition). Type of assay: cell-based. Conditions: read-out: KM12 (G595R) IC50, 72 hr.

Regarding `O=C(c1n[nH]c2ncnc(N[C@@H]3CCC[C@@H](O)[C@H]3O)c12)N1CCC[C@@H]1c1cc(F)ccc1F`, the results for the half-maximal inhibitory concentration (IC50) in assay [1], in assay [2] and in assay [3] were < 10 nM, 10 to 100 nM and 10 to 100 nM, respectively.

With `CN(C)C(=O)[C@H]1C[C@@H](O)[C@H](Nc2ncnc3[nH]nc(C(=O)NCc4cc(F)ccc4F)c23)C1`, the half-inhibitory concentration (IC50) in assay [1] is < 10 nM; in assay [2] it was 10 to 100 nM; in assay [3], 10 to 100 nM.

Consider `CN(Cc1cc(F)ccc1Cl)C(=O)c1n[nH]c2ncnc(N[C@@H]3CC[C@@H](O)[C@H]3O)c12`, for which the IC50 in assay [1] is < 10 nM; in assay [2], < 10 nM; in assay [3], 10 to 100 nM.

For the compound `O=C(c1n[nH]c2ncnc(N[C@@H]3CCOC[C@H]3O)c12)N1C[C@@H](F)C[C@@H]1c1cc(F)ccc1F`, the IC50 in assay [1], in assay [2] and in assay [3] was < 10 nM each time.

`O=C(NCc1cc(F)ccc1C(F)(F)F)c1n[nH]c2ncnc(N[C@@H]3CC[C@@H](O)[C@H]3O)c12`: the 50% inhibitory concentration (IC50) in assay [1] is 10 to 100 nM; in assay [2], 100 to 1000 nM; in assay [3], 100 to 1000 nM.

Regarding `O=C(c1n[nH]c2ncnc(N[C@@H]3CC[C@@H](O)[C@H]3O)c12)N1C[C@@H](F)C[C@@H]1c1cccc(F)c1`, the IC50 in assay [1], in assay [2] and in assay [3] was < 10 nM in each case.

As to `O=C(c1n[nH]c2ncnc(N[C@@H]3C=C[C@@H](O)[C@H]3O)c12)N1C[C@@H](F)C[C@@H]1c1cccc(F)c1`, the results for the 50% inhibitory concentration (IC50) in assay [1], in assay [2] and in assay [3] were < 10 nM, 10 to 100 nM and 10 to 100 nM, respectively.

As for `CN(Cc1cc(F)cc(Cl)c1)C(=O)c1n[nH]c2ncnc(N[C@@H]3CC[C@@H](O)[C@H]3O)c12`, the 50% inhibitory concentration (IC50) in assay [1] is < 10 nM; in assay [2], 10 to 100 nM; in assay [3] it was 10 to 100 nM.

Regarding `O=C(c1n[nH]c2ncnc(N[C@@H]3CC[C@@H](O)[C@H]3O)c12)N1C[C@@H](F)C[C@@H]1c1cc(F)ccc1F`, the IC50 in assay [1], in assay [2] and in assay [3] was < 10 nM throughout.

Consider `O=C(c1n[nH]c2ncnc(N[C@@H]3CC[C@@H](O)[C@H]3O)c12)N1CC(F)(F)C[C@@H]1c1cncc(F)c1`, for which the IC50 was 100 to 1000 nM in assay [1], 100 to 1000 nM in assay [2] and > 1000 nM in assay [3].

For the compound `O=C(NCc1cc(F)cc(Cl)c1Cl)c1n[nH]c2ncnc(N[C@@H]3COCC[C@H]3O)c12`, the IC50 in assay [1] lay in the range of 10 to 100 nM; in assay [2], 100 to 1000 nM; in assay [3] it was 100 to 1000 nM.

On to `O=C(c1n[nH]c2ncnc(N[C@@H]3CC[C@@H](O)[C@H]3O)c12)N1CCC[C@@H]1c1cc(F)cc(F)c1F`, for which the values for the 50% inhibitory concentration (IC50) in assay [1], in assay [2] and in assay [3] were < 10 nM, 10 to 100 nM and < 10 nM, respectively.

Consider `COc1c(F)cc(F)cc1CNC(=O)c1n[nH]c2ncnc(N[C@@H]3CC[C@@H](O)[C@H]3O)c12`, for which the concentration for half-maximal inhibition (IC50) in assay [1], in assay [2] and in assay [3] was 100 to 1000 nM in each case.

For the compound `N#C[C@H]1C[C@H](c2cc(F)ccc2F)N(C(=O)c2n[nH]c3ncnc(N[C@@H]4COC[C@H]4O)c23)C1`, the IC50 in assay [1] lay in the range of 10 to 100 nM; in assay [2], 100 to 1000 nM; in assay [3] it was 100 to 1000 nM.

As to `CCN(Cc1cc(F)ccc1F)C(=O)c1n[nH]c2ncnc(N[C@@H]3COCC[C@H]3O)c12`, the IC50 in assay [1] was in the range of 10 to 100 nM; in assay [2], 10 to 100 nM; in assay [3], 100 to 1000 nM.

Turning to `O=C(c1n[nH]c2ncnc(N[C@@H]3CC[C@@H](O)[C@H]3O)c12)N1C[C@@H](F)C[C@@H]1c1cncc(F)c1`, the IC50 was < 10 nM in assay [1], 10 to 100 nM in assay [2] and 10 to 100 nM in assay [3].

For the compound `CN(Cc1cc(Cl)ccc1C#N)C(=O)c1n[nH]c2ncnc(N[C@H]3[C@H](O)[C@H](O)[C@@H]4C[C@@H]43)c12`, the IC50 in assay [1], in assay [2] and in assay [3] was < 10 nM throughout.

For the compound `CCN1C[C@@H](O)[C@H](Nc2ncnc3[nH]nc(C(=O)N[C@H](C)c4cc(F)ccc4F)c23)C1`, the IC50 in assay [1], in assay [2] and in assay [3] was 100 to 1000 nM each time.

Take `COC(=O)[C@@H]1C[C@@H](Nc2ncnc3[nH]nc(C(=O)NCc4cc(F)ccc4F)c23)[C@@H](O)[C@H]1O`: the IC50 in assay [1] lay within 10 to 100 nM; in assay [2], 10 to 100 nM; in assay [3], 100 to 1000 nM.

With `CN(Cc1cc(F)ccc1C#N)C(=O)c1n[nH]c2ncnc(N[C@@H]3CC[C@@H](O)[C@H]3O)c12`, the results for the half-inhibitory concentration (IC50) in assay [1], in assay [2] and in assay [3] were < 10 nM, 10 to 100 nM and < 10 nM, respectively.

Consider `COC(=O)[C@@H]1C[C@@H](Nc2ncnc3[nH]nc(C(=O)NCc4cc(F)ccc4F)c23)[C@H](O)[C@@H]1O`, for which the IC50 in assay [1], in assay [2] and in assay [3] was > 1000 nM throughout.

On to `N#Cc1cc(F)cc([C@H]2C[C@H](F)CN2C(=O)c2n[nH]c3ncnc(N[C@@H]4C[C@@H](F)C[C@H]4O)c23)c1` (relative stereo), for which the IC50 in assay [1] was < 10 nM; in assay [2], 10 to 100 nM; in assay [3], 10 to 100 nM.

As for `N#Cc1cc(F)cc([C@H]2C[C@H](F)CN2C(=O)c2n[nH]c3ncnc(N[C@@H]4CCC[C@H]4O)c23)c1`, the IC50 in assay [1], in assay [2] and in assay [3] was < 10 nM each time.

With `O=C(c1n[nH]c2ncnc(N[C@@H]3CCC[C@@H](O)[C@H]3O)c12)N1C[C@@H](F)C[C@@H]1c1cncc(F)c1`, the half-inhibitory concentration (IC50) in assay [1] was < 10 nM; in assay [2], 10 to 100 nM; in assay [3], 10 to 100 nM.

For `COc1ncc(F)cc1CN(C)C(=O)c1n[nH]c2ncnc(N[C@@H]3CC[C@@H](O)[C@H]3O)c12`, the half-maximal inhibitory concentration (IC50) in assay [1], in assay [2] and in assay [3] was 10 to 100 nM throughout.

In the case of `O=C(c1n[nH]c2ncnc(N[C@@H]3CCC[C@@H](O)[C@H]3O)c12)N1C[C@@H](F)C[C@@H]1c1cc(F)cc(F)c1`, the IC50 in assay [1], in assay [2] and in assay [3] was < 10 nM throughout.

In the case of `COc1ccc(F)cc1CN(C)C(=O)c1n[nH]c2ncnc(N[C@@H]3CC[C@@H](O)[C@H]3O)c12`, the half-maximal inhibitory concentration (IC50) in assay [1] was < 10 nM; in assay [2], 10 to 100 nM; in assay [3], 10 to 100 nM.

Consider `O=C(c1n[nH]c2ncnc(N[C@@H]3COC[C@@H](O)[C@H]3O)c12)N1C[C@@H](F)C[C@@H]1c1cc(F)ccc1F`, for which the figures for the IC50 in assay [1], in assay [2] and in assay [3] were < 10 nM, 10 to 100 nM and 10 to 100 nM, respectively.

On to `O=C(NCc1cc(F)ccc1C(F)(F)F)c1n[nH]c2ncnc(N[C@@H]3COCC[C@H]3O)c12`, for which the IC50 in assay [1] is 10 to 100 nM; in assay [2], 100 to 1000 nM; in assay [3], 100 to 1000 nM.

Take `CN(Cc1cc(F)ccc1C#N)C(=O)c1n[nH]c2ncnc(N[C@@H]3CCC[C@@H](O)[C@H]3O)c12`: the IC50 in assay [1] was < 10 nM; in assay [2], 10 to 100 nM; in assay [3], 10 to 100 nM.

For `O=C(c1n[nH]c2ncnc(N[C@@H]3COCC[C@H]3O)c12)N1CCC[C@@H]1c1cc(F)ccc1F`, the values for the half-maximal inhibitory concentration (IC50) in assay [1], in assay [2] and in assay [3] were < 10 nM, 10 to 100 nM and 10 to 100 nM, respectively.

As for `CN(Cc1cc(F)ccc1F)C(=O)c1n[nH]c2ncnc(N[C@@H]3COC[C@@H](O)[C@H]3O)c12`, the half-inhibitory concentration (IC50) in assay [1], in assay [2] and in assay [3] was 10 to 100 nM in each case.

`CN(Cc1cc(F)ccc1F)C(=O)c1n[nH]c2ncnc(N[C@H]3[C@H](O)[C@H](O)[C@@H]4C[C@@H]43)c12`: the half-maximal inhibitory concentration (IC50) in assay [1], in assay [2] and in assay [3] was < 10 nM throughout.

On to `CN(Cc1cc(F)ccc1C#N)C(=O)c1n[nH]c2ncnc(N[C@@H]3CCC[C@H]3O)c12`, for which the IC50 in assay [1], in assay [2] and in assay [3] was < 10 nM in each case.

On to `CN(Cc1cc(F)ccc1C#N)C(=O)c1n[nH]c2ncnc(N[C@@H]3CCOC[C@H]3O)c12`, for which the half-inhibitory concentration (IC50) in assay [1], in assay [2] and in assay [3] was 10 to 100 nM in each case.

In the case of `CN(Cc1cc(F)ccc1C#N)C(=O)c1n[nH]c2ncnc(N[C@H]3[C@H](O)[C@H](O)[C@@H]4C[C@@H]43)c12`, the IC50 in assay [1] is < 10 nM; in assay [2] it was 10 to 100 nM; in assay [3], < 10 nM.

In the case of `O=C(c1n[nH]c2ncnc(N[C@@H]3COC[C@H]3O)c12)N1C[C@@H](F)C[C@@H]1c1cncc(F)c1`, the IC50 fell in the range of 10 to 100 nM in assay [1], 10 to 100 nM in assay [2] and 100 to 1000 nM in assay [3].

For `O=C(N[C@@H](c1cccc(F)c1)C(F)(F)F)c1n[nH]c2ncnc(N[C@@H]3CCC[C@H]3O)c12`, the half-maximal inhibitory concentration (IC50) in assay [1], in assay [2] and in assay [3] was > 1000 nM throughout.

For `O=C(c1n[nH]c2ncnc(N[C@@H]3CC[C@@H](O)[C@H]3O)c12)N1C[C@@H](F)C[C@@H]1c1cc(F)cnc1Cl`, the half-maximal inhibitory concentration (IC50) in assay [1], in assay [2] and in assay [3] was < 10 nM in each case.

In the case of `CC(C)(O)[C@H]1C[C@@H](O)[C@H](Nc2ncnc3[nH]nc(C(=O)N4C[C@@H](F)C[C@@H]4c4cccc(F)c4)c23)C1`, the concentration for half-maximal inhibition (IC50) in assay [1], in assay [2] and in assay [3] was < 10 nM in each case.

For the compound `O=C(c1n[nH]c2ncnc(N[C@@H]3CCC[C@H]3O)c12)N1C[C@@H](F)C[C@@H]1c1cc(F)ccc1F`, the concentration for half-maximal inhibition (IC50) in assay [1], in assay [2] and in assay [3] was < 10 nM in each case.

Consider `COc1c(F)cc(F)cc1CN(C)C(=O)c1n[nH]c2ncnc(N[C@@H]3CC[C@@H](O)[C@H]3O)c12`, for which the IC50 in assay [1] was < 10 nM; in assay [2], 10 to 100 nM; in assay [3], 10 to 100 nM.

For the compound `O=C(N[C@H](c1cccc(F)c1)C(F)(F)F)c1n[nH]c2ncnc(N[C@@H]3CCC[C@H]3O)c12`, the IC50 in assay [1], in assay [2] and in assay [3] was > 1000 nM throughout.
